# Measured values taken from US4563452A, “Derivatives of oxazinobenzothiazine-6,6-dioxide” (Provesan S.A., priority 1982, dated 1986).
# Assays:
# [1] = in vivo; conditions: mouse, po, LD-50, mouse, v.o. (oral), suspended in 5% gum arabic, 25 ml/kg
# [2] = in vivo; conditions: rat, po, LD-50, rat, v.o. (oral), suspended in 5% gum arabic, 10 ml/kg
smiles,measurement,setting,value
"CN1c2c(oc(=O)n(-c3ccccn3)c2=O)-c2ccccc2S1(=O)=O [Example 2, 5-methyl-3-(2-pyridyl)-2H,5H-1,3-oxazino[5,6-c][1,2]benzothiazine-2,4-(3H)dione-6,6-dioxide]",LD50,[1]; female,8840 mg/kg
same,LD50,[1]; male,6190 mg/kg
same,LD50,[2]; female,1990 mg/kg
same,LD50,[2]; male,1430 mg/kg
